Literature values in patent US20110313056A1 (BIO SYNTECH CANADA INC., priority 2005, published 2011).

Conditions: literature (Voet and Voet); cited from earlier work

O=P(O)(O)O [phosphate, inorganic phosphate]
Ka3^P: ~12.4
